Results as given in ChEMBL document CHEMBL1156283, “Discovery and optimization of 2-(4-substituted-pyrrolo[2,3-b]pyridin-3-yl)methylene-4-hydroxybenzofuran-3(2H)-ones as potent and selective ATP-competitive inhibitors of the mammalian target of rapamycin (mTOR)” (Bioorg Med Chem Lett, 2010).

What was measured:
[1] = molecular target: Proto-oncogene tyrosine-protein kinase Src (Homo sapiens, UniProt P12931); assay: Inhibition of SRC
[2] = molecular target: Vascular endothelial growth factor receptor 2 (Homo sapiens, UniProt P35968); assay: Inhibition of VEGFR2
[3] = molecular target: Rho-associated protein kinase 1 (Homo sapiens, UniProt Q13464); assay: Inhibition of ROCK1
[4] = molecular target: Platelet-derived growth factor receptor alpha (Homo sapiens, UniProt P16234); assay: Inhibition of PDGFRalpha
[5] = molecular target: Serine/threonine-protein kinase mTOR (Homo sapiens, UniProt P42345); assay: Inhibition of mTOR

Row | Compound | IC50 [1] [µM] | IC50 [2] [µM] | IC50 [3] [µM] | IC50 [4] [µM] | IC50 [5] [µM]
1 | Cn1cc(/C=C2\Oc3cccc(O)c3C2=O)c2c(-c3ccc(C(=O)NCCO)cc3)ccnc21 | 50 | 50 | 50 | 50 | –
2 | Cn1cc(/C=C2\Oc3cc(O)cc(O)c3C2=O)c2c(-c3ccccc3)cccc21 | – | – | – | – | 0.033
